The chains behind the UniProt entries cited, without tags or fusion partners. Residues count along the entry.
UniProt P05067, 672-713 limits assumed: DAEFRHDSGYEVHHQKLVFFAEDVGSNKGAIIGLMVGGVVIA

In article PMC3408453, “A Foldamer-Dendrimer Conjugate Neutralizes Synaptotoxic β-Amyloid Oligomers” (PLoS ONE, 2012):

Molecular target: T1, oligomeric Aβ (Homo sapiens, UniProt P05067)
T1 construct: a depsipeptide derivative of Aβ(1–42) was utilized; made in house; host or cells: chemical peptide synthesis (no expression host)
Assay: Capture ELISA, biotinyl ligands on streptavidin plate, oligomeric Aβ detected by BAM10
Type: binding
Procedure: Biotin-labeled 1 was prepared by elongating the foldamer segment with a biotinyl-aminohexanoyl-Gly-Gly moiety and these derivatives were coupled to G0-PAMAM which furnished biotin-labeled 7. Biotinyl-8 was also prepared. All the labeled ligands were attached to the streptavidin functionalized microplates with a coverage of 5 pmoles per well. […] Because of the potential sterical shielding of the recognition segments over the surface, the ITC affinities cannot be directly compared to the ELISA results.
Figure 6 ELISA results. (A) Effects of multivalency on the affinities. Normalized absorbances recorded in capture ELISA experiments, where the biotinyl-7 (circles), -8 (triangles) or -1 (squares) are attached to the streptavidin functionalized plate and the increasing surface concentration of Aβ is observed through the BAM10 antibody.
An indirect ELISA experiment was conducted on 96-well streptavidin-coated clear plates (Pierce, Cat.No. 15500, Rockford, IL, US). Biotinyl-compounds bound to streptavidin by incubating 1 µg substance per well for 2 h at ambient temperature. Aβ(1–42) was dissolved in PBS to 100 µM and incubated for 24 h at 37°C. Serial dilutions of the incubated peptide were prepared, and supplemented with Tween (0.05% v/v of the final volume) and BSA (1% w/v of the final volume) prior to use. Compounds were incubated with Aβ oligomers for 1 h at ambient temperature. Bound Aβ was detected by monoclonal anti-Aβ AB clone Bam-10 (Sigma-Aldrich) applied in 1∶10000 dilution for 1 h followed by an incubation with anti-mouse IgG-HRP (DakoCytomation, Glostrup Denmark). Finally, 100 µL tetramethylbenzidine (TMB) solution (Cell Signaling Tecnology Inc., Danvers, USA) was introduced into the wells, and the change in the absorbance at 370 nm was monitored constantly, without the addition of stop solution, on a 96-well plate reader (NOVOstar OPTIMA, BMG Labtech, Offenburg, Germany) equipped with a xenon lamp, fiberglass optics and a shaking microplate carrier. Abs370 values were read near complete saturation of the signal intensity, which was observed after 40 min. For the quantitative analysis of the results, nonlinear regressions were carried out and the IC50 values were optimized with fixed number of blocked ligands per Aβ peptide as determined by ITC [80]. […] Concerning the steric shielding exerted by the solid support, the apparent binding parameters estimated from ELISA are in good accordance.

[1] = read-out: ELISA IC50, oligomeric Aβ, biotinyl ligand on streptavidin plate, fitted with fixed N from ITC
[2] = biotinyl ligand on streptavidin plate, fitted with fixed N from ITC, read-out: ELISA IC50, oligomeric Aβ

Row | SMILES | IC50 [µM] | IC50 [1] [µM] | IC50 [2] [µM]
1 | NC(=O)[C@H](CSC1CC(=O)N(CCC(=O)NCCNC(=O)CCN(CCC(=O)NCCNC(=O)CCN2C(=O)CC(SC[C@H](NC(=O)CNC(=O)CNC(=O)[C@H]3CCCC[C@@H]3NC(=O)C[C@H](CO)NC(=O)[C@H]3CCCC[C@@H]3NC(=O)[C@H]3CCCC[C@@H]3NC(=O)C[C@H](CO)NC(=O)[C@H]3CCCC[C@@H]3NC(=O)CNC(=O)CNC(=O)CCCCCNC(=O)CCCC[C@@H]3SC[C@@H]4NC(=O)N[C@@H]43)C(N)=O)C2=O)CCN(CCC(=O)NCCNC(=O)CCN2C(=O)CC(SC[C@H](NC(=O)CNC(=O)CNC(=O)[C@H]3CCCC[C@@H]3NC(=O)C[C@H](CO)NC(=O)[C@H]3CCCC[C@@H]3NC(=O)[C@H]3CCCC[C@@H]3NC(=O)C[C@H](CO)NC(=O)[C@H]3CCCC[C@@H]3NC(=O)CNC(=O)CNC(=O)CCCCCNC(=O)CCCC[C@@H]3SC[C@@H]4NC(=O)N[C@@H]43)C(N)=O)C2=O)CCC(=O)NCCNC(=O)CCN2C(=O)CC(SC[C@H](NC(=O)CNC(=O)CNC(=O)[C@H]3CCCC[C@@H]3NC(=O)C[C@H](CO)NC(=O)[C@H]3CCCC[C@@H]3NC(=O)[C@H]3CCCC[C@@H]3NC(=O)C[C@H](CO)NC(=O)[C@H]3CCCC[C@@H]3NC(=O)CNC(=O)CNC(=O)CCCCCNC(=O)CCCC[C@@H]3SC[C@@H]4NC(=O)N[C@@H]43)C(N)=O)C2=O)C1=O)NC(=O)CNC(=O)CNC(=O)[C@H]1CCCC[C@@H]1NC(=O)C[C@H](CO)NC(=O)[C@H]1CCCC[C@@H]1NC(=O)[C@H]1CCCC[C@@H]1NC(=O)C[C@H](CO)NC(=O)[C@H]1CCCC[C@@H]1NC(=O)CNC(=O)CNC(=O)CCCCCNC(=O)CCCC[C@@H]1SC[C@@H]2NC(=O)N[C@@H]21 (stereo partly drawn) [biotinyl-9] | 4.4 |  | 
2 | N=C(N)NCCC[C@@H](CC(=O)N[C@H]1CCCC[C@@H]1C(=O)N[C@@H](CC(=O)O)CC(=O)N[C@H]1CCCC[C@@H]1C(=O)N[C@H]1CCCC[C@@H]1C(=O)NCC(=O)NCC(=O)N[C@@H](CSC1CC(=O)N(CCC(=O)NCCNC(=O)CCN(CCC(=O)NCCNC(=O)CCN2C(=O)CC(SC[C@H](NC(=O)CNC(=O)CNC(=O)[C@H]3CCCC[C@@H]3NC(=O)[C@H]3CCCC[C@@H]3NC(=O)C[C@H](CC(=O)O)NC(=O)[C@H]3CCCC[C@@H]3NC(=O)C[C@H](CCCNC(=N)N)NC(=O)[C@H]3CCCC[C@@H]3NC(=O)CNC(=O)CNC(=O)CCCCCNC(=O)CCCC[C@@H]3SC[C@@H]4NC(=O)N[C@@H]43)C(N)=O)C2=O)CCN(CCC(=O)NCCNC(=O)CCN2C(=O)CC(SC[C@H](NC(=O)CNC(=O)CNC(=O)[C@H]3CCCC[C@@H]3NC(=O)[C@H]3CCCC[C@@H]3NC(=O)C[C@H](CC(=O)O)NC(=O)[C@H]3CCCC[C@@H]3NC(=O)C[C@H](CCCNC(=N)N)NC(=O)[C@H]3CCCC[C@@H]3NC(=O)CNC(=O)CNC(=O)CCCCCNC(=O)CCCC[C@@H]3SC[C@@H]4NC(=O)N[C@@H]43)C(N)=O)C2=O)CCC(=O)NCCNC(=O)CCN2C(=O)CC(SC[C@H](NC(=O)CNC(=O)CNC(=O)[C@H]3CCCC[C@@H]3NC(=O)[C@H]3CCCC[C@@H]3NC(=O)C[C@H](CC(=O)O)NC(=O)[C@H]3CCCC[C@@H]3NC(=O)C[C@H](CCCNC(=N)N)NC(=O)[C@H]3CCCC[C@@H]3NC(=O)CNC(=O)CNC(=O)CCCCCNC(=O)CCCC[C@@H]3SC[C@@H]4NC(=O)N[C@@H]43)C(N)=O)C2=O)C1=O)C(N)=O)NC(=O)[C@H]1CCCC[C@@H]1NC(=O)CNC(=O)CNC(=O)CCCCCNC(=O)CCCC[C@@H]1SC[C@@H]2NC(=O)N[C@@H]21 (stereo partly drawn) [biotinyl-10] | 18.5 |  | 
3 | N=C(N)NCCC[C@@H](CC(=O)N[C@H]1CCCC[C@@H]1C(=O)N[C@@H](CC(=O)O)CC(=O)N[C@H]1CCCC[C@@H]1C(=O)N[C@H]1CCCC[C@@H]1C(=O)NCC(=O)NCC(=O)N[C@@H](CSC1CC(=O)N(CCC(=O)NCCNC(=O)CCN(CCC(=O)NCCNC(=O)CCN2C(=O)CC(SC[C@H](NC(=O)CNC(=O)CNC(=O)[C@H]3CCCC[C@@H]3NC(=O)[C@H]3CCCC[C@@H]3NC(=O)C[C@H](CC(=O)O)NC(=O)[C@H]3CCCC[C@@H]3NC(=O)C[C@H](CCCNC(=N)N)NC(=O)[C@H]3CCCC[C@@H]3N)C(N)=O)C2=O)CCN(CCC(=O)NCCNC(=O)CCN2C(=O)CC(SC[C@H](NC(=O)CNC(=O)CNC(=O)[C@H]3CCCC[C@@H]3NC(=O)[C@H]3CCCC[C@@H]3NC(=O)C[C@H](CC(=O)O)NC(=O)[C@H]3CCCC[C@@H]3NC(=O)C[C@H](CCCNC(=N)N)NC(=O)[C@H]3CCCC[C@@H]3N)C(N)=O)C2=O)CCC(=O)NCCNC(=O)CCN2C(=O)CC(SC[C@H](NC(=O)CNC(=O)CNC(=O)[C@H]3CCCC[C@@H]3NC(=O)[C@H]3CCCC[C@@H]3NC(=O)C[C@H](CC(=O)O)NC(=O)[C@H]3CCCC[C@@H]3NC(=O)C[C@H](CCCNC(=N)N)NC(=O)[C@H]3CCCC[C@@H]3N)C(N)=O)C2=O)C1=O)C(N)=O)NC(=O)[C@H]1CCCC[C@@H]1N (stereo partly drawn) [Compound 10] |  | 18.5 | 
4 | N=C(N)NCCC[C@@H](CC(=O)N[C@H]1CCCC[C@@H]1C(=O)N[C@H]1CCCC[C@@H]1C(=O)N[C@@H](CC(=O)O)CC(=O)N[C@H]1CCCC[C@@H]1C(N)=O)NC(=O)[C@H]1CCCC[C@@H]1N [Compound 1] |  |  | 12
5 | NC(=O)[C@H](CSC1CC(=O)N(CCC(=O)NCCNC(=O)CCN(CCC(=O)NCCNC(=O)CCN2C(=O)CC(SC[C@H](NC(=O)CNC(=O)CNC(=O)[C@H]3CCCC[C@@H]3NC(=O)C[C@H](CO)NC(=O)[C@H]3CCCC[C@@H]3NC(=O)[C@H]3CCCC[C@@H]3NC(=O)C[C@H](CO)NC(=O)[C@H]3CCCC[C@@H]3N)C(N)=O)C2=O)CCN(CCC(=O)NCCNC(=O)CCN2C(=O)CC(SC[C@H](NC(=O)CNC(=O)CNC(=O)[C@H]3CCCC[C@@H]3NC(=O)C[C@H](CO)NC(=O)[C@H]3CCCC[C@@H]3NC(=O)[C@H]3CCCC[C@@H]3NC(=O)C[C@H](CO)NC(=O)[C@H]3CCCC[C@@H]3N)C(N)=O)C2=O)CCC(=O)NCCNC(=O)CCN2C(=O)CC(SC[C@H](NC(=O)CNC(=O)CNC(=O)[C@H]3CCCC[C@@H]3NC(=O)C[C@H](CO)NC(=O)[C@H]3CCCC[C@@H]3NC(=O)[C@H]3CCCC[C@@H]3NC(=O)C[C@H](CO)NC(=O)[C@H]3CCCC[C@@H]3N)C(N)=O)C2=O)C1=O)NC(=O)CNC(=O)CNC(=O)[C@H]1CCCC[C@@H]1NC(=O)C[C@H](CO)NC(=O)[C@H]1CCCC[C@@H]1NC(=O)[C@H]1CCCC[C@@H]1NC(=O)C[C@H](CO)NC(=O)[C@H]1CCCC[C@@H]1N (stereo partly drawn) [Compound 9] |  | 4.4 | 
6 | N=C(N)NCCC[C@@H](CC(=O)N[C@H]1CCCC[C@@H]1C(=O)N[C@H]1CCCC[C@@H]1C(=O)N[C@@H](CC(=O)O)CC(=O)N[C@H]1CCCC[C@@H]1C(=O)NCC(=O)NCC(=O)N[C@@H](CSC1CC(=O)N(CCCCN2C(=O)CC(SC[C@H](NC(=O)CNC(=O)CNC(=O)[C@H]3CCCC[C@@H]3NC(=O)C[C@H](CC(=O)O)NC(=O)[C@H]3CCCC[C@@H]3NC(=O)[C@H]3CCCC[C@@H]3NC(=O)C[C@H](CCCNC(=N)N)NC(=O)[C@H]3CCCC[C@@H]3N)C(N)=O)C2=O)C1=O)C(N)=O)NC(=O)[C@H]1CCCC[C@@H]1N (stereo partly drawn) [Compound 8] |  |  | 0.933

Where two headings read alike, the source gives them in different places.
